Amino acid sequences for entries named in this document (tags omitted).
UniProt P22001, whole entry: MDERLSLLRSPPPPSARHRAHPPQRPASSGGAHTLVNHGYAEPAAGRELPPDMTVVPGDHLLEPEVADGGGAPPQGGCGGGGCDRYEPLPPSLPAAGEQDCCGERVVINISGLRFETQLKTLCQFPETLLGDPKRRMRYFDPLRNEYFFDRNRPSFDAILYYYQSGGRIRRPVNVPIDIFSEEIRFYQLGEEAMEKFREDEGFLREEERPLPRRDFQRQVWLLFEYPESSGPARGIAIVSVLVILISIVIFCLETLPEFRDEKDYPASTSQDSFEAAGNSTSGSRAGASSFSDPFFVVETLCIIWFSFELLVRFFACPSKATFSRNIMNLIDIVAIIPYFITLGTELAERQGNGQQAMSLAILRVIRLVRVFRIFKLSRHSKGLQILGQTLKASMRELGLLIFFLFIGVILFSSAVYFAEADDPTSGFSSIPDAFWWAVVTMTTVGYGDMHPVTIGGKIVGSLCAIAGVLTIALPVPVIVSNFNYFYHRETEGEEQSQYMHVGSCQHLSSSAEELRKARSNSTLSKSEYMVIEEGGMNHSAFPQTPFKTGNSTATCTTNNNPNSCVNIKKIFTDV
UniProt Q09470, whole entry: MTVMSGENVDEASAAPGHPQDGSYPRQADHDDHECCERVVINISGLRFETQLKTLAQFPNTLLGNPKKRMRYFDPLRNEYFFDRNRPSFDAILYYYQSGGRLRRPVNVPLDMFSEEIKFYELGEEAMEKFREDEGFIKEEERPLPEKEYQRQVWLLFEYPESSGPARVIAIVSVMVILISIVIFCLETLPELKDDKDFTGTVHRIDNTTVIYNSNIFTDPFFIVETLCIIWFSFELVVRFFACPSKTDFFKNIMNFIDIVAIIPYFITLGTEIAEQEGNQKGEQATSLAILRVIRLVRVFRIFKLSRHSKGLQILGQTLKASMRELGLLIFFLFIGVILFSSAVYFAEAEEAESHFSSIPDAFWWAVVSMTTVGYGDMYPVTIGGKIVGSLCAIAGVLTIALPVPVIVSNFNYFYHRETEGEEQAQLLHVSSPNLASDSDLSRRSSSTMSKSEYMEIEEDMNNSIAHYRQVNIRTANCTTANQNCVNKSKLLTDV

According to patent US7803769B2 (priority 2006, dated 2010):

Columns and labels:
human Kv1.3 channel = human Kv1.3 channel (Homo sapiens, UniProt P22001); assay type: cell-based
human Kv1.1 = molecular target: T1, human Kv1.1 (Homo sapiens, UniProt Q09470); assay type: cell-based
T1 construct: expressed in transfected cells; host or cells: HEK293

For `CC[C@H](C)[C@@H]1NC(=O)[C@H](CCCCN)NC(=O)[C@@H](NC(=O)[C@H](CCCCN)NC(=O)[C@@H](NC(=O)[C@H](CC(N)=O)NC(=O)[C@@H](NC(=O)[C@@H](NC(=O)[C@@H](NC(=O)CN)C(C)C)[C@@H](C)CC)[C@@H](C)CC)C(C)C)CSSC[C@@H]2NC(=O)[C@H](CCCCN)NC(=O)CNC(=O)[C@H](Cc3ccccc3)NC(=O)[C@H](CCCNC(=N)N)NC(=O)[C@H](CCSC)NC(=O)CNC(=O)[C@H](C)NC(=O)[C@H](CCCCN)NC(=O)[C@H](CCCCN)NC(=O)[C@@H]3CSSC[C@@H](C(=O)N[C@H](C(=O)N4CCC[C@H]4C(=O)N[C@@H](CCCCN)C(=O)O)[C@@H](C)O)NC(=O)[C@H](Cc4c[nH]cn4)NC(=O)[C@H](CSSC[C@H](NC(=O)[C@H](CCC(N)=O)NC(=O)[C@H](CCCNC(=N)N)NC(=O)[C@H](CO)NC1=O)C(=O)N[C@@H](CC(C)C)C(=O)N[C@@H](CCC(=O)O)C(=O)N1CCC[C@H]1C(=O)N3)NC(=O)[C@H](CCCCN)NC(=O)CNC(=O)[C@H](CC(N)=O)NC(=O)[C@H](CCSC)NC2=O` [OSK1, reference compound], the “block of human Kv1.3 current (in words)” value (human Kv1.3 channel) was “more potent in inhibiting human Kv1.3 when compared to Kv1.1” and the “fold by which the Kv1.1 IC50 is higher than the Kv1.3 IC50” value (human Kv1.1) was 5 fold.
